Literature values, collected in patent US7632837B2, “Bicyclic heterocycles as cannabinoid-1 receptor modulators” (Bristol-Myers Squibb Company, priority 2005, dated 2009).

Details: chronic administration for two weeks

For `Cc1c(C(=O)NN2CCCCC2)nn(-c2ccc(Cl)cc2Cl)c1-c1ccc(I)cc1` [AM-251], the adipose tissue mass is listed as “decreased adipose tissue mass”.
